Laboratory results: patent US20230357271A1, “MACROCYCLIC COMPOUND” (Asahi Kasei Pharma Corporation, priority 2020, published 2023)

By UniProt entry, the sequences of proteins in these tests, tags left out.
UniProt Q9NWZ3, whole entry: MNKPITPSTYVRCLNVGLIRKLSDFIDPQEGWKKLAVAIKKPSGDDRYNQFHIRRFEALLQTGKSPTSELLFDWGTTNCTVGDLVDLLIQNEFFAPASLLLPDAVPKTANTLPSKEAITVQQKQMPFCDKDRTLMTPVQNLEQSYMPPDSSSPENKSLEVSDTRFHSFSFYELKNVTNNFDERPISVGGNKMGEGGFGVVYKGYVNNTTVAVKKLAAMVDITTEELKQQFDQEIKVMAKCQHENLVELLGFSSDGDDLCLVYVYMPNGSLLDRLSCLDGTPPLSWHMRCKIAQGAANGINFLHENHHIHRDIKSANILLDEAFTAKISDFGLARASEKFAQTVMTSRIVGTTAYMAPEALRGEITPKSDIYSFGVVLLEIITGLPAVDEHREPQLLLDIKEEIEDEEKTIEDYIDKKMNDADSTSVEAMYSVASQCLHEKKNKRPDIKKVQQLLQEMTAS

Experiments:
human IRAK-4 = human IRAK-4 (Homo sapiens (Human), UniProt Q9NWZ3); experiment: Measurement of human IRAK-4 inhibitory activity (TR-FRET); conditions: read-out: IC50 (nM), IRAK-4 inhibitory activity; 1 nM IRAK-4, 0.5 µM peptide substrate, 10 µM ATP, 23° C., 30 minutes
Experimental: For the measurement of the activity of the human IRAK-4 (Invitrogen, Cat. PV3362), phosphorylation of the IRAK-4 peptide substrate (biotin-KKKKRFSFKKSFKC) by the enzyme in the presence of 10 µM ATP (Sigma-Aldrich, Cat. A7699) was measured by the TR-FRET method. The enzymatic reaction was performed in a reaction buffer containing 50 mM HEPES (pH 7.2), 1 mM DTT, 0.1 mM Na3VO4, 5 mM MgCl2, 1 mM MnCl2, and 0.1% bovine serum albumin. For the measurement of the IRAK-4 inhibitory activity, a test compound was added to the reaction buffer containing 1 nM IRAK-4, 0.5 µM peptide substrate, and 10 µM ATP, and the mixture was incubated at 23° C. for 30 minutes. Then, a detection solution containing an antibody labeled with europium cryptate (0.3 µg/mL, the antibody was prepared by using the IRAK-4 peptide substrate as the antigen), streptavidin-XL665 (2 µg/mL, CisBio, Cat. 610SAXLB), 50 mM HEPES (pH 7.2), 0.1% BSA, 120 mM KF, and 66.7 mM EDTA (all the concentrations of the reagents are final concentrations) was added to terminate the reaction, and then the mixture was further incubated at 23° C. for 60 minutes. Fluorescence intensity was measured at wavelengths of 665 nm and 620 nm with a microplate reader, and the enzymatic activity was calculated as the ratio of fluorescence intensities at 665 nm and 620 nm (665 nm/620 nm). […]

[1] = tested on: human acute monocytic leukemia cell strain THP-1; experiment: LPS-stimulated TNFα production inhibition test using THP-1 cells; conditions: read-out: IC50 ( µM), TNFα production inhibition, LPS 2.5 ng/mL, 4 hours, TNFα by HTRF
Experimental: By the THP-1 assay, influence of a test compound on the TNFα production induced by LPS stimulation can be evaluated. The THP-1 cells (ATCC, Cat. TIB-202) were inoculated on a 96-well plate at a density of 1 × 10^5 cells/160 µL/well, a test compound was added in a volume of 20 µL, and the plate was incubated at 37° C. for 1 hour in a 5% CO2 incubator. Then, LPS in a volume of 20 µL (final concentration 2.5 ng/mL, Sigma, Cat. L2630) was added, and the plate was further incubated for 4 hours. After the incubation, the plate was centrifuged, and 100 µL of the supernatant was taken from each well, and used for evaluation of the amount of TNFα using HTRF (Cisbio, Cat. 62TNFPEB). In the measurement of the amount of TNFα, the supernatant was diluted twice with the medium, and then added to wells of a 384-well plate in a volume of 10 µL, then anti-TNFα-cryptate (5 µL), and anti-TNFα-XL665 (5 µL) were added, and the plate was left standing overnight. The fluorescence intensity ratio for the wavelengths of 620 and 665 nm (620 nm/665 nm) was measured with a microplate reader, and the amount of TNFα in the supernatant was calculated by using a calibration curve. […]

## CCN1CC[C@H]2C[C@H]1C(=O)NCC(F)COc1c(-c3cnc(C)nc3)ccc3ncc(cc13)N2 (some centres unmarked)
Human IRAK-4
  IC50: 1.02 nM
[1]
  IC50: 0.045 µM
